Source: PubChem BioAssay AID588591 (National Center for Advancing Translational Sciences (NCATS), 2011)
Only a part is listed here, and it is no random draw. Results filed as inconclusive are left out. The source made the active and inactive calls. Calls follow the shape of the dose curve; as a rule, active = well fitted inhibition curve with a large enough effect; inconclusive = small, poorly fitted or top-dose-only effect, or another doubt; inactive = no such curve, though single readings can be large or run the other way.

The chains behind the UniProt entries cited, without tags or fusion partners.
UniProt Q9Y253, whole entry: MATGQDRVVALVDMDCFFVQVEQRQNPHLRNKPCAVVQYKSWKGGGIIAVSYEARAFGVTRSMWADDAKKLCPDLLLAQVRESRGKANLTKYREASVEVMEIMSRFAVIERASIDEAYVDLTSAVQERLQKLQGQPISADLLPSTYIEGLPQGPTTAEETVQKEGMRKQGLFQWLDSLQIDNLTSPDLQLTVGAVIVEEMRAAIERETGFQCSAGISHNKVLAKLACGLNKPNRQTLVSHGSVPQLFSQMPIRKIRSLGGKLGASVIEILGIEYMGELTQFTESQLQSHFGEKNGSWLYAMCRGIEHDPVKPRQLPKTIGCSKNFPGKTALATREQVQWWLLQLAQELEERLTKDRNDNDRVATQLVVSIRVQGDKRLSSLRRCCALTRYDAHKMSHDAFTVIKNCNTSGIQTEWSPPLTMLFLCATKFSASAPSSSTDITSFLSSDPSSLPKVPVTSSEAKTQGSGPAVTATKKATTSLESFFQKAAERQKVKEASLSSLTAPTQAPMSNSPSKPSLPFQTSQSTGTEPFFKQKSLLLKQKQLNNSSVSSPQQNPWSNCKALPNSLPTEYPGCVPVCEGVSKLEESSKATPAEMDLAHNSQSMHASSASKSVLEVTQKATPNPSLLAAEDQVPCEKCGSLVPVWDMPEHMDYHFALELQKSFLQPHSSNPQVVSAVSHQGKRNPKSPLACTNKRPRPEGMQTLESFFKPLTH

biological target: DNA polymerase eta (Homo sapiens) (UniProt Q9Y253); experiment: qHTS for Inhibitors of Polymerase Eta; conditions: recombinant Pol eta, fluorescent DNA replication assay; at 114 µM (top of the series)
% is scaled to controls: 0 for no effect and ±100 for the full control effect.

SMILES | activity change, negative = inhibition
COc1cc(C(=O)NCC2(N3CCOCC3)CCCCC2)cc(OC)c1C | inactive: -14.9%
COc1ccc(C(=O)NCC2(N3CCOCC3)CCCCC2)cc1OC | inactive: -5.03%
c1ccc(CN2CCC(Nc3ccccc3)CC2)cc1 | inactive: -5.68%
CCCN1CCC(Nc2cc(OC)cc(OC)c2)CC1 | inactive: -23.9%
Cc1cc(N(CCCl)CCCl)ccc1C=O | inactive: -19%
O=C(NCC1(N2CCOCC2)CCCCC1)c1ccccc1 | inactive: 5.71%
CN(C)C1(CNC(=O)c2cccc(C#N)c2)CCCCC1 | inactive: -3.52%
O=C(NCC1(N2CCOCC2)CCCCC1)c1ccc([N+](=O)[O-])cc1 | inactive: -18.5%
O=C(NCC1(N2CCOCC2)CCCCC1)c1ccccc1[N+](=O)[O-] | inactive: -8.93%
N#Cc1ccc(C(=O)NCC2(N3CCCCC3)CCCCC2)cc1 | inactive: 0.215%
CCOC(=O)C(CC)C1=NC(C)(C)Cc2ccccc21.O=[N+]([O-])c1cc([N+](=O)[O-])c(O)c([N+](=O)[O-])c1 (stereo not drawn) | inactive: -20.4%
O=C(NCC1(N2CCCCC2)CCCCC1)c1cccc(C(F)(F)F)c1 | inactive: -6.43%
CCCOc1cccc(C(=O)NCC2(N3CCOCC3)CCCCC2)c1 | inactive: -8.51%
O=[N+]([O-])c1cc([N+](=O)[O-])c(NCC2CCS(=O)(=O)C2)c([N+](=O)[O-])c1 (stereo not drawn) | inactive: -14.9%
COc1ccc(NC2CCN(C(=O)OC(C)(C)C)CC2)cc1 | inactive: -13.5%
CC(C)c1ccc(C(=O)NCC2(N3CCOCC3)CCCCC2)cc1 | inactive: -9.39%
CN1CCN(CCOC(=O)C(O)(c2ccccc2)c2ccccc2)CC1 | inactive: 11.1%
O=C(NCC1(N2CCOCC2)CCCCC1)c1cc(=O)[nH]c2ccccc12 | inactive: -4.12%
COc1cc(C(=O)NCC2(N3CCCCC3)CCCCC2)ccc1OC(F)F | inactive: -17.7%
O=C(NCC1(N2CCCCC2)CCCCC1)c1ccc(OC(F)F)cc1 | inactive: -19.2%
O=C(NCC1(N2CCCCC2)CCCCC1)c1cccc([N+](=O)[O-])c1 | inactive: 6.2%

SMILES | activity change, negative = inhibition
CCOc1ccc(C(=O)NCC2(N3CCOCC3)CCCCC2)cc1 | inactive: -9.29%
CSc1ccc(C(=O)NCC2(N3CCOCC3)CCCCC2)cc1 | inactive: -0.0626%
CCN1CCC(Nc2ccc(Cl)cc2)CC1 | inactive: -3.75%
N#CC1(Nc2ccccc2)CCN(CCc2ccccc2)CC1 | inactive: 3.83%
O=C(NCC1(N2CCCCC2)CCCCC1)c1cncc(Br)c1 | inactive: -3.17%
CN1CCC(Nc2cccc(F)c2)CC1 | inactive: -10.3%
O=C(OC1CN2CCC1CC2)c1ccc([N+](=O)[O-])cc1 (stereo not drawn) | inactive: -19.9%
Cc1ccc(C(=O)NCC2(N(C)C)CCCCC2)o1 | inactive: -0.103%
CCCCOc1ccccc1C(=O)NCC1(N2CCOCC2)CCCCC1 | inactive: -7.92%
CCCOc1ccc(C(=O)NCC2(N(C)C)CCCCC2)cc1OC | inactive: -8.61%
O=C(NCC1(N2CCOCC2)CCCCC1)c1ccccc1Br | inactive: -13.2%
O=[N+]([O-])c1cc([N+](=O)[O-])c(Nc2ccc(Cl)cc2)c([N+](=O)[O-])c1 | inactive: -3.77%
COc1ccc(CN(CCCl)CCCl)cc1Cl | inactive: -27.9%
CN(C)c1cccc(C(=O)NCC2(N3CCCCC3)CCCCC2)c1 | inactive: -15.2%
O=[N+]([O-])c1cc([N+](=O)[O-])c(OC2CCCCC2O)c([N+](=O)[O-])c1 (stereo not drawn) | inactive: -22.3%
COc1cc(OC)c(C(=O)NCC2(N(C)C)CCCCC2)cc1OC | inactive: 8.88%
O=C(NCC1(N2CCOCC2)CCCCC1)c1cc(F)c(F)cc1Cl | inactive: -14.9%
O=C(NCC1(N2CCOCC2)CCCCC1)c1cc2ccccc2o1 | inactive: -2.11%
O=C(NCC1(N2CCCCC2)CCCCC1)c1ccc(Cl)nc1 | inactive: -9.84%
Cc1cc(C)cc(N(C(=O)c2ccccc2)C2CCN(C(=O)OC(C)(C)C)CC2)c1 | inactive: -12.2%
CCOC(=O)N1CCC(Nc2ccc(OC)cc2)CC1 | inactive: -7.44%

SMILES | activity change, negative = inhibition
O=C(NCC1(N2CCCCC2)CCCCC1)c1ccc(Cl)s1 | inactive: -9.04%
N#CC1(Nc2ccccc2)CCN(Cc2ccccc2)CC1 | inactive: -2.48%
COc1ccc(Cl)cc1C(=O)NCC1(N2CCOCC2)CCCCC1 | inactive: -22.7%
O=C(NCC1(N2CCCCC2)CCCCC1)c1ccc(=O)[nH]c1 | inactive: -13.2%
O=C(NCC1(N2CCCCC2)CCCCC1)c1cccs1 | inactive: 6.2%
COc1ccc(C(=O)NCC2(N3CCCCC3)CCCCC2)cc1 | inactive: -5.89%
COc1ccc(C(=O)NCC2(N3CCCCC3)CCCCC2)c(OC)c1OC | inactive: -1.02%
CC(C)(C)OC(=O)N1CCC(N(C(=O)c2ccccc2)c2ccc(F)cc2)CC1 | inactive: -23.2%
CSc1ccccc1C(=O)NCC1(N2CCCCC2)CCCCC1 | inactive: 1.1%
Cc1cccc(NC2(C#N)CCN(Cc3ccccc3)CC2)c1 | inactive: -19.8%
COc1cc(C(=O)NCC2(N(C)C)CCCCC2)ccc1OC(F)F | inactive: -11%
CCOC(=O)N1CCC(Nc2cccc(C)c2)CC1 | inactive: -12.1%
CCOc1ccc(C)cc1CN(CCCl)CCCl | inactive: -8.25%
O=C(NCC1(N2CCOCC2)CCCCC1)c1ccc(Cl)cc1 | inactive: -13.9%
O=C1CCN(Cc2ccccc2)CC1 | inactive: -6.04%
O=C(NCC1(N2CCCCC2)CCCCC1)c1ccc(F)cc1 | inactive: -18.2%
CCCCOc1ccc(C(=O)NCC2(N3CCOCC3)CCCCC2)cc1 | inactive: -4.15%
O=P1(N(CCCl)CCCl)SCCCS1 | inactive: -7.19%
CCOC(=O)N1CCC(Nc2ccc(F)cc2)CC1 | inactive: -18.7%
COc1ccc(NC2CCN(CCc3ccccc3)CC2)c(OC)c1 | inactive: -7.72%
COc1ccccc1C(=O)NCC1(N2CCOCC2)CCCCC1 | inactive: -0.161%
